In patent US4780412A, “Fibrinolytic enzymes produced from established non-cancerous cell lines” (priority 1982, dated 1988) one finds Vmax data, which are given here for 2 compounds.

The chains behind the UniProt entries cited, without tags or fusion partners. Residues count along the entry.
UniProt H0W0Z7, 33-559: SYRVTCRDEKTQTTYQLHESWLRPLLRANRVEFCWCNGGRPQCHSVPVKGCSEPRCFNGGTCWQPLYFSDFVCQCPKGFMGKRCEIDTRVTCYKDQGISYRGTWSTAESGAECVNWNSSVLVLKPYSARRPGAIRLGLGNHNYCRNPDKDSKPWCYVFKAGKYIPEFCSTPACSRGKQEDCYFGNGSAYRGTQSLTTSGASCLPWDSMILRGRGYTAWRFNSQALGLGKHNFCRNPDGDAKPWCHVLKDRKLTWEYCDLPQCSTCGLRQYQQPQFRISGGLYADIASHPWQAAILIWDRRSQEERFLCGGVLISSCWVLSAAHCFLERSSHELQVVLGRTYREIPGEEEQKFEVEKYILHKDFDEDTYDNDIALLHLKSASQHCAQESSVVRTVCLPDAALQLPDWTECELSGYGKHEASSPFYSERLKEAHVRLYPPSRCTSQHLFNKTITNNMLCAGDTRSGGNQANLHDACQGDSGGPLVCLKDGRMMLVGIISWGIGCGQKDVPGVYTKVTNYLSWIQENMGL

Where a name gives a salt, the structure may show the parent alone.

This experiment has as its target T1, GPK derived enzyme, partially purified (fibrinolytic enzyme / plasminogen activator from cell line GPK, CNCMI-222) (Cavia porcellus, UniProt H0W0Z7).
T1 construct: zinc chelate agarose, partially purified from culture supernatant
Nature of the experiment: Amidolytic activity on chromogenic substrates (release of p-nitroaniline at 405 nm). In kind it is biochemical. How it is done:
The amidolytic activity of the GPK derived enzyme was determined using various chromogenic substrates. […] Z

Consider `CC(C)[C@H](NC(=O)c1ccccc1)C(=O)NCC(=O)N[C@@H](CCCNC(=N)N)C(=O)Nc1ccc([N+](=O)[O-])cc1` [Benzoyl-Val--Gly--Arg--pNA.HCl], for which the Vmax (pH 9.0 (line above), ionic strength I 0.0035, substrate concentration by weight) is reported as 1.387 M/min/M enzyme. For the compound `N=C(N)NCCC[C@H](NC(=O)[C@H](CCC(=O)O)NC(=O)[C@@H](N)CCC(=O)O)C(=O)Nc1ccc([N+](=O)[O-])cc1` [Glu--Glu--Arg--pNA.HCl], the Vmax (pH 8.8, ionic strength I 0.0037, 0.05M Tris-HCl, 37° C.) is listed as 5.36 M/min/M enzyme.
